Test results taken from ChEMBL document CHEMBL6153079, “Discovery of noncovalent diaminopyrimidine-based Inhibitors for glioblastoma via a dual FAK/DNA targeting strategy” (Eur J Med Chem, 2025).

What was measured:
U-251 = assay: Antiproliferative activity against human U-251 assessed as cell viability incubated for 48 hrs by MTT assay
U-87 MG = assay: Antiproliferative activity against human U-87 MG assessed as cell viability incubated for 48 hrs by MTT assay; details: u-87mg atcc

`O=C(O)c1ccc(N(CCCl)CCCl)cc1` was tested, and the IC50 (U-251) was > 50 µM and the IC50 (U-87 MG) was > 50 µM.
